Key:
Tubulin [1] = target: T1, Tubulin (Sus scrofa, UniProt P02554+P02550); test: Binding affinity to pig brain tubulin polymerization measured every 1 mins of 60 mins by fluorescence assay
Tubulin [2] = target: T1, Tubulin; test: Binding affinity to pig brain tubulin; assay type: tissue-based
Tubulin (Sus scrofa) = Tubulin (Sus scrofa) (UniProt P02554+P02550); test: Ratio of colchicine Ki to compound Ki for pig brain tubulin
HeLa = test: Resistance factor, ratio of IC50 for human HeLa cells expressing class 3 tubulin to IC50 for human HeLa cells; assay type: functional
SW780 = test: Resistance factor, ratio of IC50 for human SW780AD cells expressing p-gp to IC50 for human SW780 cells; assay type: functional

Protein sequences, listed by entry. Tags and fused reporters are not part of them.
UniProt P02554, whole entry, looked up: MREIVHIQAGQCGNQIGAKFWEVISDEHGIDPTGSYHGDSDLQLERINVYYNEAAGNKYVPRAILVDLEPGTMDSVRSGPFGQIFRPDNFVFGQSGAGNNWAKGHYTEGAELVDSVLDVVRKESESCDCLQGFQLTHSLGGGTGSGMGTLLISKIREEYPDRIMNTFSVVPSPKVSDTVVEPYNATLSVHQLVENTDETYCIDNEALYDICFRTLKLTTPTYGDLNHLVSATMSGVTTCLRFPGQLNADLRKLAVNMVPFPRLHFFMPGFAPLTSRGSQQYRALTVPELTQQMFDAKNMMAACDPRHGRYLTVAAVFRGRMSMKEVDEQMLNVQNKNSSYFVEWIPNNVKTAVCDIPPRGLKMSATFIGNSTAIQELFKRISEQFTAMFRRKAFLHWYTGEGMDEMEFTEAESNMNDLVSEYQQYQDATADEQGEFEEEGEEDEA
UniProt P02550, whole entry, looked up: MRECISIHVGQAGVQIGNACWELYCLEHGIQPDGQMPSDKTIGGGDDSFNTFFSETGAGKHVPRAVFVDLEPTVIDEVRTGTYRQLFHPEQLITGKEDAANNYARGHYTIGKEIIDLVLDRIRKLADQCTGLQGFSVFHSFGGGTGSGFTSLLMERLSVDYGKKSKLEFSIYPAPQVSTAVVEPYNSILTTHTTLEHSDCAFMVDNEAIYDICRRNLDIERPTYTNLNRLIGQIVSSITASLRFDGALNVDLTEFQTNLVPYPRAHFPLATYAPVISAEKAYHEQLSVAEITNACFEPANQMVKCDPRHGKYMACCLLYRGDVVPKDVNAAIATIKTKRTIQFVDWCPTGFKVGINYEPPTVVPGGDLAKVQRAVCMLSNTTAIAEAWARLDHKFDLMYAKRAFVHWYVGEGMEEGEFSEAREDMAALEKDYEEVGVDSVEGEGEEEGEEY

| IC50 (Tubulin [1]) [µM] | pKi (Tubulin [2]) | Ratio Ki (Tubulin (Sus scrofa)) | SMILES | Ratio IC50 (HeLa) | Ratio IC50 (SW780) |
| --- | --- | --- | --- | --- | --- |
| 1.99 | 10.233 |  | COc1cc2c(c(OC)c1OC)-c1ccc(OC)c(=O)cc1[C@@H](NCc1ccc([N+](=O)[O-])cc1)CC2 |  |  |
|  | 9.435 |  | COc1cc2c(c(OC)c1OC)-c1ccc(OC)c(=O)cc1[C@@H](NCc1ccc(Br)cc1)CC2 |  |  |
| 1.7 | 9.897 |  | COc1cc2c(c(OC)c1OC)-c1ccc(OC)c(=O)cc1[C@@H](NCc1ccc(Cl)cc1)CC2 |  |  |
| 6.49 | 10.337 |  | COc1ccc(CN[C@H]2CCc3cc(OC)c(OC)c(OC)c3-c3ccc(OC)c(=O)cc32)cc1 |  |  |
| 1.49 | 9.914 |  | COc1cc2c(c(OC)c1OC)-c1ccc(OC)c(=O)cc1[C@@H](NCc1cccc(F)c1)CC2 |  |  |
| 1.62 | 9.703 | 3 | COc1cc2c(c(OC)c1OC)-c1ccc(OC)c(=O)cc1[C@@H](NCc1cccc(F)c1F)CC2 |  |  |
| 4.6 | 10.196 |  | COc1cc2c(c(OC)c1OC)-c1ccc(OC)c(=O)cc1[C@@H](NCc1cc(F)c(F)c(F)c1)CC2 |  |  |
| 2.98 | 9.882 |  | COc1cc2c(c(OC)c1OC)-c1ccc(OC)c(=O)cc1[C@@H](NCc1cc(F)cc(F)c1)CC2 |  |  |
| 1.52 | 9.846 | 10 | COc1cc2c(c(OC)c1OC)-c1ccc(OC)c(=O)cc1[C@@H](NCc1ccc(F)c(F)c1)CC2 | 0.55 | 0.9 |
|  | 9.553 |  | COc1cc2c(c(OC)c1OC)-c1ccc(OC)c(=O)cc1[C@@H](NCc1ccc(I)cc1)CC2 |  |  |
|  | 9.737 |  | COc1cc2c(c(OC)c1OC)-c1ccc(OC)c(=O)cc1[C@@H](NCc1ccc(F)cc1)CC2 |  |  |

Source: ChEMBL document CHEMBL2176948 (J Med Chem, 2012)
